Results taken from publication PMC5666424, “Marine-Derived 2-Aminoimidazolone Alkaloids. Leucettamine B-Related Polyandrocarpamines Inhibit Mammalian and Protozoan DYRK & CLK Kinases” (Marine Drugs, 2017).

Chains of the proteins cited; added tags and fusions are not shown. Lines headed by an entry give the natural chain unless they say otherwise; changes in a name come on top.
UniProt O35493: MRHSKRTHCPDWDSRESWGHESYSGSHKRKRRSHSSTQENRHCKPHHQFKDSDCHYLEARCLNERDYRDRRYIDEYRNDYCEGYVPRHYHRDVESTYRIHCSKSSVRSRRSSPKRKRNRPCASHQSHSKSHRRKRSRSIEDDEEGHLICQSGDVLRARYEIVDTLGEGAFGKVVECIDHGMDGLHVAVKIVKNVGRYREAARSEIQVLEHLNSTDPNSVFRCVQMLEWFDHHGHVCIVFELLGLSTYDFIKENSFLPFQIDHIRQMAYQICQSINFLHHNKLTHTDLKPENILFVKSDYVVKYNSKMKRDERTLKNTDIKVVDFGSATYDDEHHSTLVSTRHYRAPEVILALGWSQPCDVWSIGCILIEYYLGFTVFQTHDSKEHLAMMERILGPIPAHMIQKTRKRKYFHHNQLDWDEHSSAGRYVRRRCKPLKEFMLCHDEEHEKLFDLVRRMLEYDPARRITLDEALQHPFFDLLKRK

Tests used:
DYRK3 = molecular target: T1, DYRK3 (Homo sapiens, UniProt O43781); assay: Protein kinase assay; assay type: biochemical; conditions: 15 μmol/L ATP
T1 sequence (O43781 1-588): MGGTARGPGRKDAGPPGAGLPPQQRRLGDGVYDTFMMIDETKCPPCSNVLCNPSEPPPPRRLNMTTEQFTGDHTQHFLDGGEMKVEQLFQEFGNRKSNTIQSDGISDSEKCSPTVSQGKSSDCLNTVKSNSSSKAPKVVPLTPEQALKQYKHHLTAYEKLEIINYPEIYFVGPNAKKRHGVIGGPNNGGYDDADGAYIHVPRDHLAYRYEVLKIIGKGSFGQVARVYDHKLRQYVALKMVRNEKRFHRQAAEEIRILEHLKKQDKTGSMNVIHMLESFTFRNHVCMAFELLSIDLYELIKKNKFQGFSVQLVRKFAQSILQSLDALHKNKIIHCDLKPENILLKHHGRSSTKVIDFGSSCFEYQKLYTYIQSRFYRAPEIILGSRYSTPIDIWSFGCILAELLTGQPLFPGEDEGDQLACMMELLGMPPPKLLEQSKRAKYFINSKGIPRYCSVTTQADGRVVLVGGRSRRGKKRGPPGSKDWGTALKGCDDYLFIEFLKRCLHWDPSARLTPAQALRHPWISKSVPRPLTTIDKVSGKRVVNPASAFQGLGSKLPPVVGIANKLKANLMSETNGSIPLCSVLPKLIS

CLK4 = CLK4 (Mus musculus, UniProt O35493); assay: Protein kinase assay; conditions: read-out: IC50 CLK4; 15 μmol/L ATP

O=C1NC(Nc2ccccc2)=N/C1=C\c1ccc2c(c1)OCO2 [Leucettine L41, reference compound]
IC50 (DYRK3): 420 nM | IC50 (CLK4): 31 nM
